Reference: patent US10014546B2 (priority 2012, dated 2018)
Some compounds may have been tested in ways that are not shown here.

Experiments:
[1] = Charge density calculated from concentration
[2] = Cyclic voltammetry (half-cell potential, reversibility); assay type: physicochemical
[3] = Solubility of the couple / active material
[4] = Crossover flux through membrane (ICP-MS); details: Ti(cat)3 / Fe(CN)6 cell

Row | Substance | Charge Density (Ah/L) [1] [Ah/L] | E1/2, V vs. RHE ([2]; pH 9) [V vs. RHE] | Solubility (Molar), 25° C. [3] [Molar] | E1/2, V vs. RHE ([2]; pH 11) [V vs. RHE] | E1/2, V vs. RHE ([2]; pH 11, listed as Fe(CN)6^2−/3−) | crossover flux ([4]; boiled Nafion NR212, 50 micron thick) | crossover flux ([4]; unboiled Nafion HP, 20 micron thick)
1 | Potassium hexacyanochromate(III) | 40.2 | −0.60 | ≥ 1.5 | – | – | – | –
2 | ferri/ferro-cyanide | 40.2 | – | – | 1.18 | +1.18 V vs. RHE | 5.0×10^−8 mol cm^−2 day^−1 | 1.1×10^−5 mol cm^−2 day^−1
3 | potassium hexacyanomanganate(III) | 40.2 | −0.60 | ≥ 1.5 | – | – | – | –
